Reference: PubChem BioAssay AID1851 (National Center for Advancing Translational Sciences (NCATS), 2009)
Shown are results outside the selection of hits, which stands elsewhere. Records with an inconclusive call do not appear. Active and inactive are the calls of the source. Calls come from the whole dose curve; as a rule, active = well fitted curve in the direction sought with a large enough effect; inconclusive = small, poorly fitted or top-dose-only effect, or effect the other way; inactive = no such curve, though single readings can be large or run the other way.

Protein sequences, listed by entry. Tags and fused reporters are not part of them.
UniProt P08684, whole entry, looked up: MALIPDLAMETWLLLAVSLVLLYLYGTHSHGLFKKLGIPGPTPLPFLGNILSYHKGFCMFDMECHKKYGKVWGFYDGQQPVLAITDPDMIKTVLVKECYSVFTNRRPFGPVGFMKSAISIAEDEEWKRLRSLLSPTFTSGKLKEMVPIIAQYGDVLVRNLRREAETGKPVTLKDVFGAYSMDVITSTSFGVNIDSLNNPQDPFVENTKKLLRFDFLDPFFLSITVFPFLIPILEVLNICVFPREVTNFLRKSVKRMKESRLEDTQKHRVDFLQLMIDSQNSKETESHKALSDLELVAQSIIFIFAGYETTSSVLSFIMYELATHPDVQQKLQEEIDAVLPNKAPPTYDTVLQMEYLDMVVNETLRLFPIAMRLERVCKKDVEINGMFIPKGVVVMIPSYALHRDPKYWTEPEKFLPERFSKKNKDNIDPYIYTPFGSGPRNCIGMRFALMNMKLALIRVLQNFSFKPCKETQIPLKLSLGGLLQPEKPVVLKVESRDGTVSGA

Biological target: Cytochrome P450 3A4 (Homo sapiens) (UniProt P08684)
Test: Cytochrome panel assay with activity outcomes
Conditions: recombinant CYP, pro-luciferin dealkylation, luminescence, p450-cyp3a4; at 11.4 µM (top of the series)
% is set by controls: 0 for no effect and ±100 for the full control effect.

| Structure (SMILES) | activity, negative = inhibition |
| --- | --- |
| CN(CCC(=O)O)C1=Nc2ccc(Cl)cc2C(c2ccccc2)=[N+]([O-])C1 | inactive: 4.39% |
